The target of the test is Tumor necrosis factor (Homo sapiens, UniProt P01375). The test can be described thus: Inhibition of recombinant human TNFalpha binding to TNF receptor 1-ECD at 100 uM by surface plasmon resonance-based in vitro competitive binding assay.

By UniProt entry, the sequences of proteins in these tests, tags left out.
UniProt P01375, whole entry: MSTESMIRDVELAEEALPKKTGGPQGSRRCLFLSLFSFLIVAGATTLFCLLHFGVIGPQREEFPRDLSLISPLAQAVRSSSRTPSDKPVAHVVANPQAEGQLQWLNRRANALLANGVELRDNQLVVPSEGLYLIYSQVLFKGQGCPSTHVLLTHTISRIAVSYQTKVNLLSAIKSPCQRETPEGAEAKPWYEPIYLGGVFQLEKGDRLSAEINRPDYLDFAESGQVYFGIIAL

As to `O=C(O)CCCNS(=O)(=O)c1ccc2c3c(cccc13)C(=O)N2`, the inhibition stood at 16%.

As a reminder, the inhibition is the change of the read-out against control, counted positive when it falls.

The values are drawn from ChEMBL document CHEMBL3352658 (Eur J Med Chem, 2014).
